How the values were obtained:
[1] = biological target: myc-tagged full-length palmitoyl acyl transferase zinc-finger DHHC type containing 17 (zD17) (UniProt Q8IUH5); experiment: co-immunoprecipitation of zD17 and JNK3 in HEK293 cells with overexpressed PSD-95 (competitor of JNK3)
[2] = biological target: myc-tagged full-length palmitoyl acyl transferase zinc-finger DHHC type containing 17 (zD17) (UniProt Q8IUH5); experiment: cell-based or functional assay
[3] = biological target: myc-tagged full-length palmitoyl acyl transferase zinc-finger DHHC type containing 17 (zD17) (UniProt Q8IUH5); experiment: co-immunoprecipitation of zD17 and JNK3 in HEK293 cells with overexpressed PSD-95C3,5S

By UniProt entry, the sequences of proteins in these tests, tags left out. Where a name states a change or a piece, a line headed by the entry shows the natural chain unless it says otherwise.
UniProt Q8IUH5: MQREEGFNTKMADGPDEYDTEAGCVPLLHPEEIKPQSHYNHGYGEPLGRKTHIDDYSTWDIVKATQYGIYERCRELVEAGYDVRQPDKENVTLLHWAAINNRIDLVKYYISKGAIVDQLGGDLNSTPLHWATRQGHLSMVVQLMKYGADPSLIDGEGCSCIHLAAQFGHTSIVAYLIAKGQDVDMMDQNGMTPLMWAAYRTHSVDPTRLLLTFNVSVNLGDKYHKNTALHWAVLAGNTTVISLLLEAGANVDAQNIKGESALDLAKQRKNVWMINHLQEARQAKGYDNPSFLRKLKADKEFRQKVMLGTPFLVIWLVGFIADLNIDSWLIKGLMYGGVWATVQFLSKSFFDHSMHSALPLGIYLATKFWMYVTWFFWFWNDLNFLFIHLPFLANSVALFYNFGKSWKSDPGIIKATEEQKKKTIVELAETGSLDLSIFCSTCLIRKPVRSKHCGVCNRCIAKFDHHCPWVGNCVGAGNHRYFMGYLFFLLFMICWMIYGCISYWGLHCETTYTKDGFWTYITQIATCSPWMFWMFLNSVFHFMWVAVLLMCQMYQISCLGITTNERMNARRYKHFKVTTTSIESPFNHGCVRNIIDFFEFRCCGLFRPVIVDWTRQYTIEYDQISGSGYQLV

Row | fold change of the zD17-JNK3 interaction [1] [fold change] | JNK3 phosphorylation (fold change) in HEK293 cells [2] [fold change] | fold change of the zD17-JNK3 interaction [3] [fold change] | Substance
1 | 0.82 | 0.64 | – | GFP-PSD95 (postsynaptic density-95) (from UniProt P78352 1-724)
2 | – | 1.19 | 1.25 | GFP-PSD95 C3,5S (palmitoylation sites mutated) (from UniProt P78352 1-724)

From patent US20150225704A1
